Columns and labels:
[1] = target: T1, TGR5 (NCI-H716 cell line) (Homo sapiens, UniProt Q8TDU6); test: NCI-H716 cAMP Agonist EC50 Determination
T1 sequence (Q8TDU6 1-330): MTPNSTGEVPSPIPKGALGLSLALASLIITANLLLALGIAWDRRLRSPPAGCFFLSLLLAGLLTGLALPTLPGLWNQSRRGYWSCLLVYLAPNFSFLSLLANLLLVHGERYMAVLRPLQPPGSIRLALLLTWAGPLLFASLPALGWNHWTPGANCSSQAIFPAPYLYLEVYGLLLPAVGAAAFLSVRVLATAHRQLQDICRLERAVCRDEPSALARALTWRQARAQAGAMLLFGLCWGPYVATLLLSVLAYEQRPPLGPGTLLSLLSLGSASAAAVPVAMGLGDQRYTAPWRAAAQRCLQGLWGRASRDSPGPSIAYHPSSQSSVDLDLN

TGR5 (STC1 cell line) = target: T2, TGR5 (STC1 cell line) (Mus musculus, UniProt Q80SS6); test: STC1 cAMP Agonist EC50 Determination
T2 sequence (Q80SS6 1-329): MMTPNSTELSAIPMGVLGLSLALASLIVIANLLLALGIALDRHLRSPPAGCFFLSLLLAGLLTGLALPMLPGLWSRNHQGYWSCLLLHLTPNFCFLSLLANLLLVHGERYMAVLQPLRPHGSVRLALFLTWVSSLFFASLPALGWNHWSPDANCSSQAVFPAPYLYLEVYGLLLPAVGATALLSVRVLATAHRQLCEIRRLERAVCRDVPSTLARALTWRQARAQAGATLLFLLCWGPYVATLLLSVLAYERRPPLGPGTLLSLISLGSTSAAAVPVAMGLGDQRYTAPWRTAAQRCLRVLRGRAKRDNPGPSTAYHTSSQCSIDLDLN

COc1cc(C2(C)CCCc3nc(SCc4c(F)cc(C#N)cc4F)n(-c4ccc(F)cc4)c32)ccc1F (centres unmarked) [Example 119, 3,5-difluoro-4-(((7-(4-fluoro-3-methoxyphenyl)-1-(4-fluorophenyl)-7-methyl-4,5,6,7-tetrahydro-1H-benzo[d]imidazol-2-yl)thio)methyl)benzonitrile]
EC50 [1]: > 50000 nM | EC50 (TGR5 (STC1 cell line)): 180 nM

Source: patent US10077241B2 (Janssen Pharmaceutica NV, priority 2014, dated 2018)
